## Reported vapor pressure values for industrial, environmental and drug-like chemicals

Data: OPERA 2.9 data sets, kmansouri/OPERA on GitHub.

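The numbers are reported measurements, compiled and curated for the OPERA QSAR suite. One number stands for a compound and property, with no spread given. Conditions of the individual experiments are not part of the data. The measured form (salt, isomer or mixture) is not always the one drawn. Some entries may be limits or estimates that an upstream database listed as plain numbers.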

Vapor pressure is log10 of mmHg; the set covers 15 to 30 °C, mostly 20 to 25 °C. "–" marks a cell with nothing listed here.

| log vapor pressure (log10 mmHg) | compound | name |
|---|---|---|
| -7.165 | Clc1cc(Cl)c2oc3c(Cl)cc(Cl)c(Cl)c3c2c1Cl | 1,2,4,6,8,9-Hexachlorodibenzofuran |
| -3.236 | CCC(C)c1cc(C(C)CC)c(O)c(C(C)CC)c1 (stereo not drawn) | Phenol, 2,4,6-tris(1-methylpropyl)- |
| -3.084 | CO[Si](CCCn1c(=O)n(CCC[Si](OC)(OC)OC)c(=O)n(CCC[Si](OC)(OC)OC)c1=O)(OC)OC | – |
| -2.364 | CCCCC(O)CO (stereo not drawn) | 1,2-Hexanediol |
| -3.764 | O=C1NC(=O)C2CCCC12 (stereo not drawn) | 1,2-Cyclopentanedicarboximide |
| -1.699 | CC1OC1C1CCC2(C)OC2C1 (stereo not drawn) | Limonene diepoxide |
| 1.103 | CCN(C(C)C)C(C)C | 2-Propanamine, N-ethyl-N-(1-methylethyl)- |
| -4.983 | CC(O)CN(CCN(CC(C)O)CC(C)O)CC(C)O (stereo not drawn) | – |
| -6.104 | CCc1cc(Cc2cc(CC)cc(C(C)(C)C)c2O)c(O)c(C(C)(C)C)c1 | 2,2'-Methylenebis(ethyl-6-tert-butylphenol) |
| -2.439 | C[Si](C)(CCCN)O[Si](C)(C)CCCN | – |
| -4.295 | Clc1cc(Cl)cc(-c2ccc(Cl)cc2Cl)c1 | – |
| -1.537 | O=CN1CCOCC1 | 4-Morpholinecarboxaldehyde |
| -8.801 | COc1cc(NS(=O)(=O)c2ccc(N)cc2)nc(OC)n1 | Sulfadimethoxine |
| 1.871 | CC=C(C)C#N | 2-Methyl-2-butenenitrile |
| 0.407 | CCOC(C)(OCC)OCC | Ethane, 1,1,1-triethoxy- |
| -4.854 | Clc1cccc(-c2cc(Cl)c(Cl)c(Cl)c2)c1 | – |
| -6.385 | Clc1cccc(-c2c(Cl)c(Cl)c(Cl)c(Cl)c2Cl)c1Cl | 2,2',3,3',4,5,6-Heptachlorobiphenyl |
| -4.644 | Clc1ccc(-c2c(Cl)cc(Cl)c(Cl)c2Cl)c(Cl)c1 | 2,2',3,4,4',6-Hexachlorobiphenyl |
| -0.183 | O=Cc1ccccn1 | 2-Pyridinecarboxaldehyde |
| -2.696 | CC(C)(C)N(CCO)CCO | tert-Butyldiethanolamine |
| -3.866 | Clc1cc(Cl)c(Cl)c(-c2ccccc2Cl)c1 | – |
| -3.935 | CC(C#N)c1cccc(C(=O)Cl)c1 (stereo not drawn) | 3-(1-Cyanoethyl)benzoyl chloride |
| -4.468 | C=C(C)C(=O)OCC(CC)(COC(=O)C(=C)C)COC(=O)C(=C)C | 1,1,1-Trimethylolpropane trimethacrylate |
| -9.565 | CC(=O)[C@H]1CC[C@H]2[C@@H]3CC=C4C[C@@H](O)CC[C@]4(C)[C@H]3CC[C@]12C | Pregnenolone |
| -4.252 | Nc1ccc(N)c([N+](=O)[O-])c1 | 2-Nitro-1,4-phenylenediamine |
| -7.011 | CC1CCCCN1CCCOC(=O)c1ccc(Cl)c(Cl)c1 (stereo not drawn) | Piperalin |
| -2.949 | Cc1occc(=O)c1O | Maltol |
| -2.924 | Brc1cc(Br)c(Br)cc1Br | 1,2,4,5-Tetrabromobenzene |
| -2.914 | Brc1ccccc1Oc1ccccc1 | Benzene, bromophenoxy- |
| -6.001 | C=CCO/N=C(\CCC)C1=C(O)CC(C)(C)C(C(=O)OC)C1=O (stereo partly drawn) | Alloxydim |
| -1.348 | C=C(C)C(=O)OCCNC(C)(C)C | 2-(tert-Butylamino)ethyl 2-methylprop-2-enoate |
| -4.983 | Clc1cc(Cl)cc(-c2c(Cl)cc(Cl)c(Cl)c2Cl)c1 | 2,3,3',4,5',6-Hexachlorobiphenyl |